Test results: ChEMBL document CHEMBL4052581, “Expanding the Cancer Arsenal with Targeted Therapies: Disarmament of the Antiapoptotic Bcl-2 Proteins by Small Molecules” (J Med Chem, 2017)

Chains of the proteins cited; added tags and fusions are not shown.
UniProt Q07820, whole entry: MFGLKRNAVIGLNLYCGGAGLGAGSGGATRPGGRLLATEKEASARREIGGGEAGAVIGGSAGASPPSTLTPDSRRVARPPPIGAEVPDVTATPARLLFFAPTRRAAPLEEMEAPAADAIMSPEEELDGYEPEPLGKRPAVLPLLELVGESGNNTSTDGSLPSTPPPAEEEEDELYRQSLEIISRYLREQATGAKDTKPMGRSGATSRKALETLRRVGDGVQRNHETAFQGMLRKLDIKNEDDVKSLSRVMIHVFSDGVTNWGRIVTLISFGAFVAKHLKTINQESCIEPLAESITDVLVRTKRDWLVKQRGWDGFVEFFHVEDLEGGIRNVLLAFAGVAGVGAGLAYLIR

Molecular target: Induced myeloid leukemia cell differentiation protein Mcl-1 (Homo sapiens, UniProt Q07820)
Assay: Binding affinity to Mcl-1 (unknown origin)

CN(C)CC[C@H](CSc1ccccc1)Nc1ccc(S(=O)(=O)NC(=O)c2ccc(N3CCN(Cc4ccccc4-c4ccc(Cl)cc4)CC3)cc2)cc1[N+](=O)[O-] [ABT 737]
Ki: > 20 µM
